Patent US4675326A, “Bisquaternary antidotes” (dated 1987)

Tests used:
[1] = Efficacy of treatment against soman poisoning in mice; conditions: with atropine and benactyzine, pyridostigmine pretreatment
[2] = Efficacy of treatment against sarin poisoning in mice; conditions: with atropine and benactyzine
[3] = Efficacy of treatment against VX poisoning in mice; conditions: with atropine and benactyzine

SMILES | antidotal activity in the treatment of soman poisoning, compared to TMB-4 [1] | antidotal activity against sarin, compared to TMB-4 [2] | treatment against VX, compared to TMB-4 [3]
CC(=O)OC1C[N+]2(COC[n+]3ccccc3C=NO)CCC1CC2 (stereo not drawn) | superior to TMB-4 | – | –
O=C1C[N+]2(COC[n+]3ccccc3C=NO)CCC1CC2 | superior to TMB-4 | comparable to TMB-4 | –
O=C1C[N+]2(COC[n+]3ccc(C=NO)cc3)CCC1CC2 | superior to TMB-4 | comparable to TMB-4 | slightly better than TMB-4
